Reference: patent publication US20260382635A1, “NITROSYL-HEME FORMULATIONS FOR THE TREATMENT OF CARDIOVASCULAR CONDITIONS, HEMOLYSIS, AND THE STABILIZATION OF CELL-FREE HEME MOLECULES” (published 2026)

Tests used:
platelets = assay: Platelet activation in platelet-rich plasma (flow cytometry); conditions: controls; 2.5 μM heme, 25 μM GSH, 7.5 μM albumin; 2 μM ADP (FIG. 12)
Method: Samples were prepared using heme (25 μM), NO (20 μM), albumin (75 μM) with and without GSH (250 μM) under normoxic or anoxic conditions. Fresh blood was drawn into sodium citrate tubes with the first tube being discarded and platelet rich plasma (PRP) collected after sedimentation of the red blood cells. Platelet activation was measured as described previously.^82 First, PRP was diluted 1:7 with oxygenated or deoxygenated PBS buffer, then albumin samples were mixed with this diluted PRP in 1:10 ratio. After 5 minutes of incubation at 37 °C, 2 μM ADP was added to all test samples except negative vehicle controls, followed by 10 additional minutes incubation. 20 μL of each sample was subsequently added to PAC-1 FITC (BD™ FITC Mouse Anti-Human PAC-1, 25 μg/mL (1 mL); catalog no. 340507; clone PAC-1 RUO (GMP))—which labels activated platelets—and CD61 (BD™ PerCP Mouse Anti-Human CD61, 3 g/mL (1 mL); catalog no. 340506; clone RUU-PL7F12 RUO (GMP))—which labels all platelets- and incubated at room temperature in the dark for 20 minutes and then fixed in 1% buffered formaldehyde. Platelets were sorted using a BD FACSCalibur Analyzer. Data were collected and analyzed using BD CellQuest Pro (v6.0). Gating strategy was based on side and forward scattering compared to red blood cells and then also for activated platelets. Platelets were labelled along the x-axis and activation on the y-axis. Activation was taken as the upper right quadrant divided by the sum of the two right quadrants (FIG. 14).
GSNO can inhibit platelets in vitro.^59,60 As GSNO is generated by the reaction, an alternate method to was employed to generate NO-ferroheme without GSNO by first reducing hemin with 1.6 fold excess sodium dithionite and then adding an equivalent of NO to the pre-formed ferrous heme at a final concentration of 2 μM (FIG. 4B). […] Finally, to establish that sGC is activated with NO-ferroheme in platelets, cGMP was detected with and without ODQ, a sGC inhibitor, and tadalafil, a phosphodiesterase (PDE) inhibitor (FIG. 4C). cGMP is increased with NO-ferroheme treatment vs controls (FIG. 4C, solid hexagons, p=0.0177), consistent with sGC activation and cGMP-dependent signaling.

[1] = Kinetics of reductive nitrosylation of ferric heme in MeOH:PBS buffer (UV-Vis/stopped-flow)
Method: (§1) All individual spectra and pseudo-first-order kinetics were performed using a thermostatted (23/37 °C±0.2) Cary 50, Cary 100, or HP8453 UV-Visible spectrophotometer (Agilent Technologies) running either Cary WinUV Scan (v 5.23.1042, Agilent Technologies), Cary WinUV Scanning Kinetics (v3.00(183), Agilent Technologies), or UV-Visible ChemStation (vB.04.01 [61], Agilent Technologies) for reactions ferric heme reactions with NO and without glutathione in PBS and MeOH/PBS buffer (1 part PBS in 5 parts methanol) unless otherwise noted. For pseudo-first-order reactions with fast observed rates such as the ferric heme reaction with NO and reduced glutathione, a thermostatted SX-20 stopped-flow instrumented fitted with a direct mount photodiode array (Applied Photophysics, Ltd.) in an anaerobic chamber was used. Stopped-flow data were collected using Pro-Data SX (v2.5.1852.0, Applied Photophysics). Samples were prepared either in a glove box under nitrogen atmosphere or using a Schlenk line under argon atmosphere with oxygen-free buffers and solvents.
Hemin stock (5 mM) was prepared regularly in 20 mN anaerobic NaOH solution, sealed in a septum capped vial. The concentration of hemin was precisely determined by absorption spectroscopy using the extinction coefficient at 385 nm of 58.4 mM^−1 cm^−1.^78 Reduced glutathione stocks (25-100 mM) were made regularly in deaerated PBS and sealed in septum capped vials. Methanol was deaerated separated before mixing in a 5:1 ratio with deaerated PBS to make MeOH:PBS buffer for spectroscopy experiments. The precise concentration of NO from bubbling or from ProliNONOate was determined either by titrating with excess oxyhemoglobin and calculating the amount of methemoglobin produced by fitting absorption spectra to normalized basis spectra or using an ozone-based chemiluminescent analyzer. Stock concentrations of ProliNONOate were also verified through absorption spectroscopy, using the extinction coefficient at 248 nm of 8.4 mM^−1 cm^−1.^79 A sample stopped-flow experiment was performed as follows: 25 μM hemin and 250 µM hemin were loaded into one syringe, and a range of NO concentrations between 125 μM and 2.5 mM were loaded in the other syringe and the syringe contents were mixed 1:1 in the stoppled flow. For radical trapping experiments, the above reaction conditions were replicated plus the addition of 50 mM DMPO in deaerated MeOH:PBS solution.
A 5:1 mixture of methanol to phosphate buffered saline (PBS, pH 7.4)—herein referred to as the MeOH:PBS buffer—was used to solubilize free heme at concentrations amenable to UV-visible spectroscopic characterization. […]
Addition of 125 μM GSH with 12.5 μM ferric heme and only 125 μM NO results in rapid formation a product with the same spectroscopic signature, indicating NO-ferroheme formation (FIG. 1B, note markedly different time scale from FIG. 1A). […] The GSH-facilitated product lacks the characteristic dithionite absorbance at 315 nm.
Varying the concentrations of NO or GSH under pseudo first-order conditions allows for determination of the reaction dependence on GSH and NO, yielding calculated second-order rate constants of 7000 M^−1s^−1 and 2300 M^−1s^−1, respectively (FIG. 1F).

[2] = NO-ferroheme formation kinetics in serum albumin (UV-Vis)
Method: as §1
Stocks of hemin, glutathione, and NO were prepared as described above. An albumin stock (0.5-1 mM) was made in phosphate buffered saline (PBS) and the concentration verified by absorption spectroscopy using an extinction coefficient of 43.8 mM^−1 cm^−1 at 280 nm. Stock solutions were used to produce mixtures on a Schlenk line and transferred using Hamilton syringes with concentrations given in the results section. Solutions were made directly or indirectly and transferred with no differences between products of each preparation. The direct method involved adding ferric heme solution and glutathione directly to albumin in an argon- or nitrogen-filled, septum-sealed vial, followed by NO addition. Solutions were used after five minutes. The indirect method involved NO addition to heme and GSH in PBS before then adding albumin after five minutes. The NO-ferroheme was then incubated with albumin for thirty minutes.
As in the RBC ghost membrane system, GSH-catalyzed NO-ferroheme formation occurred in the presence of plasma serum albumin. […]

albumin = conditions: allosteric binding of small molecules; cited from earlier work
mice = assay: Changes in murine mean arterial pressure (MAP); conditions: nitrite infusion, normoxia
Method: A total of 70 male C57BL/6J mice (the Jackson Laboratory), aged between 12 to 14 weeks, were anesthetized by isoflurane (2.5%) for all experiments. Mice were in rooms maintaining 12/12 h light/dark cycles at 20-26 °C and 30-70% relative humidity. 10 of these total mice were used to establish the parameters of the model. Body temperature was maintained at 37 °C by a heating pad connected to heat pump (Androit). Catheters were implanted for carotid artery and jugular vein. Arterial blood pressure was continuously recorded through a blood pressure transducer (MLT699, ADInstrument) connected to an 8-channel Powerlab (ADInstrument). A tracheal tube was introduced and connected to a rodent ventilator (Model 849, MidiVent). Upon completion, in some animals, the fraction of inspiratory O2 was decreased from 21% to 10% to induce hypoxia. 75 μL of L-NAME was administered intravenously in a bolus at a dose of 10 mg/kg bodyweight. Ten minutes after L-NAME injection, animals were injected with 50 μL of NO-ferroheme, normal saline (NS), NO control, or freshly prepared GSNO^77 control for 4 times at 10-minute intervals. An NO-ferroheme in albumin stock was prepared via a concentrated version of the direct method as described above: 300 μM ferric heme was mixed anaerobically on a Schlenk line with 3 mM GSH and 600 μM NO in 500 μM albumin using air-tight Hamilton syringes. NO controls were generated similarly and comprised 300 μM dissolved NO with 3 mM GSH in anaerobic albumin solution. Likewise, GSNO stocks comprised 300 μM GSNO with 3 mM GSH in anaerobic albumin solution. Each of these stocks (NO-ferroheme, NO control, or GSNO control) were handled identically and diluted further in air with 500 μM albumin solution before injection by 1000-, 100-, and 10-fold. Mean arterial pressure (MAP) values were obtained by processed the recorded arterial pressure data with LabChart 7.3.8 (ADInstruments). To quantify changes ΔMAPmax was determined, defined as the average MAP before an injection (average of 3 to 5 time points) subtracted from the maximum change within 3 minutes after injection (average of 3-5 time points) for each species at a given concentration.
Using male C57BL/6J mice, catheters were inserted into the right carotid artery and jugular vein for monitoring MAP and for dose injections, respectively. Fresh NO-ferroheme stock solutions were generated in an anaerobic environment by mixing 300 μM hemin, 3 mM glutathione, 600 μM NO, and 500 μM bovine serum albumin in PBS. To establish that vasodilation was independent of endogenous eNOS-derived NO, mice were first treated with the NOS inhibitor L-NG-nitroarginine methyl ester (L-NAME). Four doses of NO-ferroheme were administered at estimated blood concentrations of 7.5 nM, 75 nM, 0.75 μM, and 7.5 μM. Doses were injected intravenously every ten minutes, long enough for the blood pressure to stabilize.
Injections of NO-ferroheme solution in hypoxic animals were characterized by a rapid, transient relaxation, as monitored by changes in MAP. The MAP almost completely returned to the L-NAME induced baseline after ten minutes when compared to normal saline controls (FIG. 5A). […] These changes were also significant versus normal saline at 75 nM under normoxic conditions (p=0.0002), 0.75 μM and 7.5 μM (p<0.0001, FIG. 5D, open squares vs circles).
This synthesis can involve multiple potential vasodilators including NO itself, GSNO, and NO-ferroheme. Therefore, it was desirable to define the dominant vasodilating species. The vasodilation potency of NO and GSNO was compared. Fresh stocks of NO were made (300 μM NO, 3 mM glutathione, and 500 μM albumin) and mice were injected in 10-minute intervals at the same dosing as the NO-ferroheme albumin injections (7.5 nM, 75 nM, 0.75 μM, and 7.5 μM dissolved NO) under 10% hypoxia and normoxia (FIGS. 5A and 5B, hashed traces). […]

[3] = role: substrate, GSH varied, ferric heme, NO, albumin, 22 °C

Question: Which “platelet inhibition, effect in words” value (platelets) does the source give for `N[C@@H](CCC(=O)N[C@@H](CS)C(=O)NCC(=O)O)C(=O)O` here?
Answer: No platelet inhibition was observed

Question: And the “spectral changes of ferric heme” value ([1]; 300 μM GSH to 30 μM ferric heme, no NO)?
Answer: no observable spectral changes

Question: And the “observed 2nd-order rate constant (GSH dependence)” value ([1]; role: substrate, GSH varied, [NO] 250 μM, ferric heme, MeOH:PBS, 23 °C, anaerobic)?
Answer: 7000 M⁻¹ s⁻¹

Question: And the “effect on rate of NO-ferroheme formation in albumin” value ([2]; 500 μM serum albumin)?
Answer: accelerates the rate of NO-ferroheme formation in a dose-dependent manner

Question: What about the “observed 2nd-order rate constant, fast phase” value [2, 3] of the same compound?
Answer: 700 M⁻¹ s⁻¹

Question: And the “observed 2nd-order rate constant, second phase” value [2, 3]?
Answer: 20 M⁻¹ s⁻¹

Question: Which “platelet inhibition, effect in words” value (platelets) does the source give for `C=CC1=C(C)c2cc3[nH]c(cc4nc(cc5[nH]c(cc1n2)c(C)c5CCC(=O)O)C(CCC(=O)O)=C4C)c(C)c3C=C.[Fe+3]` here?
Answer: No platelet inhibition was observed

Question: Which “effect on rate of NO dissociation from heme-albumin” value (albumin) does the source give for `CC(=O)CC(c1ccccc1)c1c(O)c2ccccc2oc1=O` (stereo not shown) here?
Answer: accelerated

Question: Which “vasodilation, words” value (mice) does the source give for sodium nitrite here?
Answer: low-amplitude, sustained vasodilation

Question: Which “effect on rate of NO dissociation from heme-albumin” value (albumin) does the source give for `CC(C)Cc1ccc(C(C)C(=O)O)cc1` (stereo not shown) here?
Answer: accelerated
